Legend:
INS-1 β-cells = experiment: Cell survival of INS-1 β-cells pre-treated with MKX-2 and then treated with H2O2, MTT assay; format: cell-based, rat
Procedure: HIT-T15 cells (75 to 77 passages), which are from an insulin secretion cell line derived from a hamster, and INS-1 cells (18 to 20 passages), which are from an insulin secretion cell line derived from a rat, were used. A culture medium used for culturing HIT-T15 cells was 10% FBS, 100 units/ml of penicillin, and 100 µg/ml of streptomycin added to RPMI-1640. The culture medium used for culturing INS-1 cells was 10% FBS and 1 mM pyruvate, 10 mM HEPES, 50 mM 2-mercaptoethanol, 100 units/ml penicillin, 100 µg/ml of streptomycin mixed in RPMI-1640. Two β-cell lines were cultured in conditions in which 95% humidity was maintained at a temperature of 37° C. and included 5% CO2. When cell confluence reached about 70% to about 80%, the cells were washed with PBS and then treated with 0.05% trypsin-EDTA to subculture the cells.
β-cells were divided into wells in a 24-well plate at a concentration of 1×10^5 cells/well and the β-cells were cultured for 24 hours such that a cell confluence reached about 70% to about 80%. After 24 hours, a pre-existing medium was removed and then replaced with RPMI-1640 including 0.5% FBS, cultured for 6 hours, and then the β-cells were inhibited from proliferation and differentiation. MKX-2 was dissolved in DMSO and then was used to pre-treat the β-cells at concentrations of 0 ng/ml, 0.12 ng/ml, 1.2 ng/ml, 12 ng/ml, 60 ng/ml, and 120 ng/ml, 1 hour prior to a H2O2 treatment. A control group was treated with DMSO at 0.001% to be compared to the treatment group. 1 hour after an MKX-2 treatment, a H2O2 treatment was performed for about 2 hours or about 4 hours. […] An absorbance value was quantitatively analyzed to calculate a cell growth inhibition rate
As described above, HIT-T15 and INS-1 cells, which are β-cells of islets of Langerhans, were seeded at a density of 1×10^5 cells/well for each well in a 24-well plate, which were then stabilized, and a preexisting medium was carefully removed therefrom on the day of the experiment, including even a miniscule amount of medium that remained after the removal. Thereafter, RPMI-1640 medium including 0.5% FBS was used to culture the β-cells for 6 hours and stop proliferation and differentiation of the β-cells. An MKX-2 treatment group and a control group only including the same amount of DMSO, which was used to dissolve MKX-2, were prepared. Thereafter, the MKX-2 treatment group was treated with in amounts of 0 ng/ml, 0.12 ng/ml, 1.2 ng/ml, 12 ng/ml, 60 ng/ml, and 120 ng/ml and then the β-cells were treated with H2O2 (100 M) for about 2 hours to about 4 hours to put the β-cells under stress, and then an MTT assay was used to compare cell survival rates.

cardiomyocytes = experiment: Myocardiocyte apoptosis experiment, TUNEL assay after 0.03% H2O2; format: cell-based, Wistar rat
Procedure: An 8 weeks old Wistar rat was injected with ketamine and pentobarbital to quickly kill the mouse, and its heart was quickly separated from the mouse. An aorta was used to perfuse with a Ca free Krebs-Henseleit buffer (KHB) solution which was pre-heated to a temperature of about 34° C. to about 37° C. Thereafter, the KHB solution was switched to Hank's balanced salt solution (HBSS:GIBCO, Grand Island, N.Y.) containing 0.15% class II collagenase (Cooper Biomedical, Malvern, Pa.) and then was used to perfuse the aorta for about 30 to about 40 minutes. Thereafter, the product obtained therefrom was washed twice with a cell culture medium (Dulbecco's modified Eagle's medium, DMEM). Ventricles and atria were separated each other and only ventricular tissues were finely chopped and then stirred thoroughly for 5 minutes in a shaker filled with culture medium (DMEM) containing class II collagenase that was pre-heated to a temperature of about 34° C. to about 37° C. Connective tissues that were not dissolved were filtered and a collagenase-containing solution was washed twice with the culture medium (DMEM). The product obtained therefrom was softly centrifuged at a speed of 10 g for 2 minutes, a supernatant obtained therefrom was separated and removed, and cell components were washed three times with a culture medium (DMEM) solution containing 1% fetal bovine serum (FBS; Sigma Chemical, St. Louis, Mo.). Thereafter, the cells obtained therefrom were stabilized in a culture medium, 10% FBS, 10 mM N-2-hydroxyethylpiperazine-N′-2-ethanesulfonic acid (HEPES, GIBCO Laboratories, Grand Island, N.Y.), 2 mM L-glutamine, and penicilin-stereptomycin (100 IU/mL, GIBCO) for 60 minutes. Thereafter, the cells were divided into wells in a 6-well plate at a density of 20×10^3 cells/cm^2 and then bromodeoxyuridine (BrdU, 10 uM, Sigma-Aldrich) was added to the culture medium over 3 days to prevent the proliferation of fibroblasts and progenitor cells (Lokuta et al, 1994; Miragoli et al., 2006).
The cells were cultured in an incubator under conditions of […], 5% CO2, and a temperature of 37° C. for the next experiment.
Cultured cells were divided into a control group and an experimental group for an MKX-2 treatment, and culture media of both groups were replaced with culture media free of FBS before the MKX-2 treatment. The treatment times were 0 hour, 12 hours, and 24 hours and concentrations of MKX-2 were 0.1 ng/μl and 0.01 ng/μl for each of the control group and the experimental group. To induce apoptosis in both the control group and the experimental group, 0.03% H2O2 was added to both groups 30 minutes before the MKX-2 treatment.
A cover glass was placed in the 6-well plate and cells cultured thereon were washed with PBS, which were fixed with 100% ethanol for 5 seconds at room temperature and then washed again with PBS. A freshly prepared permeabilization solution (0.1% Triton X-100+0.1% sodium citrate) was added to the wells and then treated for 10 minutes at a temperature of 37° C. in an incubator. Thereafter, cell cultures were washed twice with PBS for 5 minutes, a mixture solution of label solution and enzyme solution in an in situ cell death detection kit (Roche, Germany) was dropped in an amount of 30 μl on each cover glass, which was slightly covered with a parafilm thereafter. In an incubator at a temperature of 37° C., the cell cultures were reacted for 1 hour, washed twice with PBS for 5 minutes, and then treated with DAPI (Sigma) for 10 minutes at room temperature. After washing the cell cultures with PBS, a fluorescence microscope was used to observe the cell cultures and randomly select 10 locations, count the numbers of DAPI dyed cells and TUNEL positive cells at those 10 locations, and calculate a ratio of the DAPI dyed cells to the TUNEL positive cells. […]

retinal neurocytes = details: 0.1 nM and 1 nM, 72 hours

CC[C@H](C)[C@H](N)C(=O)N[C@@H](CO)C(=O)NCC(=O)N[C@@H](CC(C)C)C(=O)N[C@@H](CCCNC(=N)N)C(=O)N[C@@H](CO)C(=O)N[C@@H](CC(C)C)C(=O)N[C@H](C(=O)N[C@H](C(=O)N[C@@H](CC(C)C)C(=O)N[C@@H](CC(C)C)C(=O)N[C@@H](CCCNC(=N)N)C(=O)N[C@@H](C)C(=O)N[C@@H](CC(C)C)C(=O)NCC(=O)N[C@@H](C)C(=O)N[C@@H](CCC(N)=O)C(=O)N[C@@H](CCCCN)C(=O)N[C@@H](CCC(=O)O)C(=O)N[C@@H](CC(C)C)C(=O)N[C@@H](CCSC)C(=O)O)[C@@H](C)O)[C@@H](C)O [MKX-2]
cell survival rate compared to non-MKX-2 treatment group (INS-1 β-cells; 0.12 ng/ml and 1.2 ng/ml, H2O2 treatment for 2 hours or 4 hours): did not show a statistically significant difference
cell survival rate (INS-1 β-cells; 60 ng/ml, H2O2 treatment for 2 hours): 86.4%+4.79
cell survival rate (INS-1 β-cells; 60 ng/ml, H2O2 treatment for 4 hours): 64.39%+1.65
cell survival rate (INS-1 β-cells; 120 ng/ml, H2O2 treatment for 2 hours): 95.0%+4.53
cell survival rate (INS-1 β-cells; 120 ng/ml, H2O2 treatment for 4 hours): 83.60%+5.76
numbers of TUNEL positive cells/numbers of DAPI dyed cells (cardiomyocytes; MKX-2 0.01 ng/uL, 0 hour): 10.12 ± 2.03%
numbers of TUNEL positive cells/numbers of DAPI dyed cells (cardiomyocytes; MKX-2 0.01 ng/uL, 12 hours): 35.82 ± 3.95
numbers of TUNEL positive cells/numbers of DAPI dyed cells (cardiomyocytes; MKX-2 0.01 ng/uL, 24 hours): 44.16 ± 3.34%
numbers of TUNEL positive cells/numbers of DAPI dyed cells (cardiomyocytes; MKX-2 0.1 ng/uL, 0 hour): 5.38 ± 2.36%
numbers of TUNEL positive cells/numbers of DAPI dyed cells (cardiomyocytes; MKX-2 0.1 ng/uL, 12 hours): 44.35 ± 3.91%
numbers of TUNEL positive cells/numbers of DAPI dyed cells (cardiomyocytes; MKX-2 0.1 ng/uL, 24 hours): 47.97 ± 2.85%
increase of cell survival rate compared to 0 nM (retinal neurocytes): without any statistical significance

Source: US20140378378A1, “ERYTHROPOIETIN-DERIVED PEPTIDE AND USE THEREFOR” (priority 2011, published 2014)
